From PubChem BioAssay
Shown are actives, neighbours in structure and some others; about 4.2% of the full set was active somewhere.
NALP1 yeast inh: NALP1 inhibition; 280,000 tested, 0.61% active; S. cerevisiae NALP1/ASC/caspase-1 growth, X-gal OD620, 72 h; inhibition, % at 10 µM; in the data active means inhibition mostly above about 24%, no sharp cut-off; inactive means mostly below about 32%
HDAC3 inhib: inhibitors of human histone deacetylase 3 | recombinant HDAC3, fluorogenic peptide/trypsin coupled, fluorescence | inhibition, % at 8.3 µM | 320,000 tested, 0.15% active | AID 2718; in the data active means inhibition above about 26%, passing the limit was not always enough
ALR inh: inhibitors of human ALR sulfhydryl oxidase, primary screen, biochemical, H2O2 detection, HRP-luminol luminescence, single point; FAD-linked sulfhydryl oxidase ALR (Homo sapiens), P55789; purified ALR, DTT oxidation; inhibition, % (concentration not given with the values); AID 485317, 2010; actives 3.8% (n = 290,000);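 active means mean and each replicate at 75% or more; inconclusive means only one of the two met; inactive means neither met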;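 further: stock transfer was 7.5 nL into about 7.5 µL; 0% = neutral wells and 100% = wells with inactivated enzyme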
MC4R antag cAMP: blocks human MC4R cAMP signaling. AID 540295. 360,000 tested, 0.48% active. P32245. inhibition, % at 6.5 µM. MC4R-expressing cells, MTII-stimulated cAMP, LANCE TR-FRET;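 active means inhibition above its plate's cutoff, the mean of tested wells on that plate plus 3 SD, cut at about 29% in these data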;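 further: 0% = Melanotan II alone and 100% = Melanotan II plus saturating MCL0020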
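Material: U2OS-MC4R stable cell line | Reagent: Melanotan II challenge after compound preincubation | Doses: One concentration, 6.5 µM nominal | Incubation: 30-min compound preincubation, 1-h Melanotan II challenge, 1-h detection, room temperature | Signal: TR-FRET cAMP assay | Replicates: One well per compound, no replicates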
MC4R ag barr: activates human MC4R beta-arrestin recruitment. P32245. U2OS MC4R beta-arrestin complementation, luminescence; percent of melanotan II response, DMSO zero. activation, % at 8.9 µM. 360,000 tested, 0.98% active. AID 540308;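 active means activation above a per-plate cutoff, the mean activation of sample wells on that plate plus 3 SD, cut at about 8% in these data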
Yeast UUG start-1: yeast start codon fidelity modulation | S. cerevisiae UUG-firefly luciferase reporter, luminescence/redox ratio | activity score, % at 18.7 µM | 0.13% of 350,000 active | AID 602363;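 active means replicate mean at a twofold rise or more, about +100% in these data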;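 further: firefly luciferase made from a UUG start codon reports start codon fidelity; reporter light over untreated wells divided by growth signal over untreated wells; some hits fall short of that in this replicate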
Yeast UUG start-2: alters UUG start codon use in yeast; S. cerevisiae UUG-start firefly luciferase, luminescence, 4 h; 100% means double the DMSO signal; shares compounds with Yeast UUG start-1; activation, % at 38 µM; 540 tested, under 10 active; AID 652061;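 active means signal increase whose fitted curve reaches an absolute level of 40 at a concentration under 10 µM; inactive means activity opposite to the expected increase, or the rest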
* = called active by the depositor.

Results for O=C(NCC[C@H]1CC[C@H](NS(=O)(=O)c2cccc(F)c2)[C@H](CO)O1)c1cnccn1 ?
Yeast UUG start-1: 112.9*; Yeast UUG start-2: inactive

What do the screens show for `O=C(Nc1ccc(Cl)cc1)N[C@H]1CC[C@@H](CCNC(=O)c2ccccc2F)O[C@H]1CO`?
Yeast UUG start-1: 3.1

Results for C[C@@H]1CCCCO[C@@H](CN(C)C(=O)C2CCCCC2)[C@@H](C)CN([C@H](C)CO)C(=O)c2cc(NC(=O)Nc3ccc(C(F)(F)F)cc3)ccc2O1 ?
Yeast UUG start-1: -14.9

How did C[C@@H]1CCCCO[C@H](CN(C)S(=O)(=O)c2ccc(Cl)cc2)[C@@H](C)CN([C@H](C)CO)C(=O)c2cc(NS(=O)(=O)c3cn(C)cn3)ccc2O1 do in these assays?
Yeast UUG start-1: 11.0

Results for Cc1cccc(N2CCN(C(=O)Cn3nc(Cc4ccncc4)c4ccccc4c3=O)CC2)c1C ?
HDAC3 inhib: -3.4; MC4R antag cAMP: 10.2; MC4R ag barr: 0.2; Yeast UUG start-1: -13.0; Yeast UUG start-2: 5.5

What do the screens show for `O=C(Cn1nc(Cc2ccncc2)c2ccccc2c1=O)N1CCN(C(=O)c2ccco2)CC1`?
NALP1 yeast inh: 35.5; HDAC3 inhib: -1.1; ALR inh: -11.8; MC4R antag cAMP: 0.1; MC4R ag barr: -0.2; Yeast UUG start-1: -6.5

How did CCNC(=O)C[C@H]1CC[C@@H]2[C@H](COc3ccc(NC(=O)c4ccc5c(c4)OCO5)cc3C(=O)N2C)O1 do in these assays?
Yeast UUG start-1: 3.1

Results for CC1CN(Cc2c(O)ccc3c2oc(=O)c2ccccc23)CC(C)O1 (stereo not drawn) ?
HDAC3 inhib: 7.7; ALR inh: 31.1; MC4R antag cAMP: -3.9; MC4R ag barr: 1.8; Yeast UUG start-1: 155.7*; Yeast UUG start-2: 15.2

Results for O=S(=O)(N[C@@H]1CC[C@H](CCn2cc(-c3cccnc3)nn2)O[C@@H]1CO)c1ccc(Cl)cc1 ?
Yeast UUG start-1: 102.0*; Yeast UUG start-2: inactive

What do the screens show for `COCc1cn(CC[C@H]2CC[C@H](NC(=O)Nc3c(C)noc3C)[C@H](CO)O2)nn1`?
Yeast UUG start-1: 193.8*; Yeast UUG start-2: inactive

What do the screens show for `O=C(Cc1ccccn1)NCC[C@H]1CC[C@@H](NS(=O)(=O)c2ccc(Cl)cc2)[C@@H](CO)O1`?
Yeast UUG start-1: -8.0

How did O=C(Cc1ccccn1)NCC[C@@H]1CC[C@H](NS(=O)(=O)c2ccc(Cl)cc2)[C@H](CO)O1 do in these assays?
Yeast UUG start-1: 103.5*; Yeast UUG start-2: inactive

Next section; it opens with the two that closed the last part.
What do the screens show for `O=C(Cc1ccccn1)NCC[C@H]1CC[C@@H](NS(=O)(=O)c2ccc(Cl)cc2)[C@@H](CO)O1`?
Yeast UUG start-1: -8.0

How did O=C(Cc1ccccn1)NCC[C@@H]1CC[C@H](NS(=O)(=O)c2ccc(Cl)cc2)[C@H](CO)O1 do in these assays?
Yeast UUG start-1: 103.5*; Yeast UUG start-2: inactive

Results for COCc1cn(CC[C@H]2CC[C@@H](NC(=O)Nc3c(C)noc3C)[C@H](CO)O2)nn1 ?
Yeast UUG start-1: -4.0

How did COc1cccc(-c2cn(CC[C@@H]3CC[C@H](NC(=O)CC4CC4)[C@@H](CO)O3)nn2)c1 do in these assays?
Yeast UUG start-1: 155.0*; Yeast UUG start-2: inactive

What do the screens show for `CCC(=O)N1C[C@@H](C)[C@@H](OC)CN(C)C(=O)c2cc(NC(=O)Nc3ccc(Cl)cc3)ccc2OC[C@@H]1C`?
Yeast UUG start-1: 1.4

How did COc1ccc(NC(=O)Nc2ccc3c(c2)C(=O)N([C@@H](C)CO)C[C@@H](C)[C@@H](CN(C)S(=O)(=O)c2ccc(C)cc2)O3)cc1 do in these assays?
Yeast UUG start-1: 8.5

How did CN1C[C@H]2[C@@H](c3ccccc31)[C@H](CO)N2C(=O)Nc1ccccc1 do in these assays?
Yeast UUG start-1: -6.9

How did O=C(Cc1ccccn1)N[C@H]1CC[C@@H](CCNS(=O)(=O)c2cccc(F)c2)O[C@@H]1CO do in these assays?
Yeast UUG start-1: 243.5*; Yeast UUG start-2: inactive

What do the screens show for `O=C(Cc1ccccn1)N[C@H]1CC[C@@H](CCNS(=O)(=O)c2cccc(F)c2)O[C@H]1CO`?
Yeast UUG start-1: 3.1

What do the screens show for `COc1ccc(/C=N/NC(=O)c2ccc3nc[nH]c3c2)c(OC)c1OC`?
NALP1 yeast inh: 13.6; HDAC3 inhib: 7.5; ALR inh: -6.3; MC4R antag cAMP: -4.4; MC4R ag barr: 1.5; Yeast UUG start-1: 346.3*; Yeast UUG start-2: -5.2
